Results on 7 compounds are retold here after patent publication US8143259B2, “Cold menthol receptor antagonists” (Janssen Pharmaceutica, NV, priority 2008, dated 2012).

The chains behind the UniProt entries cited, without tags or fusion partners. Residues count along the entry.
UniProt Q1A7N1, 1-1104: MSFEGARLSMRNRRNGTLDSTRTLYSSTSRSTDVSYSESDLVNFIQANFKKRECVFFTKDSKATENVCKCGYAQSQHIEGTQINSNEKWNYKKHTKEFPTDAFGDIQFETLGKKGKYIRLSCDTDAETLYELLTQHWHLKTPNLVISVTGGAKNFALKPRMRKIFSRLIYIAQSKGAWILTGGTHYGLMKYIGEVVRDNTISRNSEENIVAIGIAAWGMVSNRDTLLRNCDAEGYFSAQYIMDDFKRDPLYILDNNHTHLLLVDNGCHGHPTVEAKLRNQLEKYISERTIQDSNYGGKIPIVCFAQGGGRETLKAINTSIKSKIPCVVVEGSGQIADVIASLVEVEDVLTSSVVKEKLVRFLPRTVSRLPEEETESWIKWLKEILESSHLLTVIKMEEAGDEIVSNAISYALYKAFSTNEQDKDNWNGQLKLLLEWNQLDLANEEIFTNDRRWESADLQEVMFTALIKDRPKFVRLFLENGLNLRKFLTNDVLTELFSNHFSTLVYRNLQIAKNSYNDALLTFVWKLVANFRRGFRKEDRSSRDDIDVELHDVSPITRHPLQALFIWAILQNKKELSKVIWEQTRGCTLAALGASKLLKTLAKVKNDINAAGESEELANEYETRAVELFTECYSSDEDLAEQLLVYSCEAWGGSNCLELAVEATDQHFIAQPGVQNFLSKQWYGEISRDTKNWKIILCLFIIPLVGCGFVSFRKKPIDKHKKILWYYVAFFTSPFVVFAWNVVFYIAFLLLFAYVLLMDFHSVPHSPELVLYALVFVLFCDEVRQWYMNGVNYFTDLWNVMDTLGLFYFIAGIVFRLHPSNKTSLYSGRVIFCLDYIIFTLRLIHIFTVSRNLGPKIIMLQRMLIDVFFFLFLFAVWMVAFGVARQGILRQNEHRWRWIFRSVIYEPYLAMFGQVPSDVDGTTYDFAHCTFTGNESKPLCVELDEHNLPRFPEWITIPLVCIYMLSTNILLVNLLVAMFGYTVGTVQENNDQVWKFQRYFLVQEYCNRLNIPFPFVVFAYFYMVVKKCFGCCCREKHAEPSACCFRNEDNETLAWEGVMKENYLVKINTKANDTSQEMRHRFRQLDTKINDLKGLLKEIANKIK

In the test the target is canine TRPM8 (Canis lupus familiaris, UniProt Q1A7N1). The experiment in a line: In Vitro Canine TRPM8 Functional Assay (Ca2+ fluorescence, icilin activation). It is filed as cell-based. The following applies: for IC50: HEK293 cells stably expressing canine TRPM8, icilin activation, Ca2+ fluorescence; for % Inh @ 0.2 μM: 0.2 μM compound; for % Inh @ 0.2 μM / % Inh @ 0.5 μM: canine TRPM8 HEK293, icilin; for % Inh @ 0.5 μM: 0.5 μM compound. The method, then:
The functional activity of compounds of the formula (I) was determined by measuring changes in intracellular calcium concentration using a Ca^2+-sensitive fluorescent dye. The changes in fluorescent signal were monitored by a fluorescence plate reader, either a FLIPR™ (Molecular Devices) or FDSS (Hamamatsu). Increases in intracellular Ca^2+ concentration were readily detected upon activation with icilin.
HEK293 cells stably expressing canine TRPM8 were routinely grown as monolayers in Dulbecco's minimum essential medium supplemented with 10% FBS, 2 mM L-glutamine, 100 units/mL penicillin, 100 ug/mL streptomycin and 400 μg/mL G418. Cells were maintained in 5% CO2 at 37° C. At 24 hrs prior to assay, cells were seeded in black wall, clear-base poly-D-lysine coated 384-well plates (BD Biosciences, NJ, USA) at a density of 5,000 cells per well in culture medium and grown overnight in 5% CO2 at 37° C. On assay day, growth media was removed and cells were loaded with Calcium 3 Dye (Molecular Devices) for 35 min at 37° C., under 5% CO2 and then for 25 min at room temperature and atmosphere. Subsequently, cells were tested for agonist-induced increases in intracellular Ca^2+ levels using FLIPR™ or FDSS. Cells were challenged with compounds of the formula (I) (at varying concentrations) and intracellular Ca^2+ was measured for 5 min prior to the addition of icilin to all wells to achieve a final concentration that produces approximately an 80% maximal response. EC50 or IC50 values for compounds of the present invention were determined from eight-point dose-response studies and represent the concentration of compound required to elicit or inhibit 50% of the maximal response, respectively.
Maximal fluorescence intensity (FI) achieved upon addition of icilin was exported from the FLIPR or FDSS software and further analyzed using GraphPad Prism 3.02 (Graph Pad Software Inc., CA, U.S.A.). Basal FI was subtracted prior to normalizing data to percent of maximal response. Curves were generated using the average of quadruplicate wells for each data point, were analyzed using nonlinear regression of either sigmoidal dose response or sigmoidal dose response (variable slope).

The compound `O=C([C@H](Nc1ccccc1F)c1ccc(Br)cc1)N1[C@H](CO)CC[C@@H]1c1ccccc1` (single isomer, unassigned) displayed an IC50 of 86.1 nM.
For `O=C(C(Cc1c(F)cccc1F)c1ccc(C(F)(F)F)cc1)N1CCC[C@H]1c1ccccc1F` (stereo partly drawn), the “% Inh @ 0.2 μM” value is 92% and the IC50 is 11 nM.
Take `COc1ccccc1C1CCCN1C(=O)C(CNc1ccccc1F)c1ccc(C(F)(F)F)cc1` (stereo not drawn): the “% Inh @ 0.5 μM” value is recorded as 88% and the IC50 was 334 nM.
`N#Cc1ccc(C(Nc2ccccc2)C(=O)N2CCCC2c2ccccc2Cl)cc1` (stereo not drawn): the “% Inh @ 0.5 μM” value is recorded as 100.88% and the IC50 was determined as 100 nM.
As for `O=C(C(Cc1ccccc1F)c1ccc(C(F)(F)F)cc1)N1CCC[C@H]1c1ccccc1F` (stereo partly drawn), the “% Inh @ 0.2 μM” value turned out to be 95% and the IC50 is 21.4 nM.
In the case of `COc1ccccc1C1CCCN1C(=O)C(NCc1ccccc1)c1ccc(C(F)(F)F)cc1` (stereo not drawn), the “% Inh @ 0.5 μM” value is 96% and the IC50 stood at 206 nM.
Compound `O=C([C@@H](Nc1ccccc1F)c1ccc(Br)cc1)N1[C@H](CO)CC[C@@H]1c1ccccc1` (single isomer, unassigned) yielded an IC50 of 136 nM.
